Rtt109 Vps75 – blocks Candida albicans Rtt109/Vps75 acetyltransferase activity; Q5AAJ8; purified Rtt109/Vps75, ThioGlo CoA-SH fluorescence, 4 h; inhibition, % at 34.9 µM; 330,000 compounds, 0.16% hits;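 active means inhibition of at least 50% in every replicate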
UUG fidelity – alters start codon recognition fidelity in yeast; S. cerevisiae UUG-firefly luciferase reporter, luminescence/redox ratio; activity score, % at 18.7 µM; actives 0.13% (n = 350,000); AID 602363;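 active = replicate mean at a twofold rise or more, about +100% in these data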;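 also: firefly luciferase made from a UUG start codon reports start codon fidelity; reporter light over untreated wells divided by growth signal over untreated wells; some hits fall short of that in this replicate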
Cneo AK release – causes C. neoformans cell lysis; adenylate kinase release luminescence, 4 h; normalised: neutral wells 0, clomiphene wells 100; lysis activity, % at 15 µM; 360,000 compounds, 0.2% hits; AID 651654;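 active means mean lysis activity across replicates of at least 80%, whatever share of replicates individually reach that level; inactive means mean lysis activity below 80%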
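Assay system: Cryptococcus neoformans yeast cells / Dosing: single-point compound dose / Timing: 4 h at 37 °C static, read 1 h later / Measured by: luminescence of released adenylate kinase using an AK detection reagent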
C2C12 statin – suppressors of simvastatin-induced myotoxicity in C2C12 myotubes. ATP luminescence, 48 h; scaled: DMSO 0, geranylgeraniol control 100. rescue of ATP level, % at 7.49 µM. 330,000 compounds, 0.78% hits. AID 602340;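 active means mean ATP rescue above about 67%, or every replicate alone reaching that limit, limit read from the data, passing the limit was not always enough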;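 further: myotubes were challenged with 10 µM simvastatin during compound exposure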
CDK5 p35 inh – blocks human CDK5/p35 kinase activity. Q00535+Q15078. Recombinant CDK5/p35, ADP-Glo luminescence, 60 min. inhibition, % at 10 µM. 330,000 compounds, 0.01% hits. AID 488839;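 active means highest replicate inhibition of at least 50% and at least 75% of replicates reaching 50%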;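 further: plate controls were DMSO neutral control for no effect and GW8510 at 10 µM for full effect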
* hit, by the source's call; nt = not tested or not shown. Rows were chosen to be rich in hits. Some 1% of all compounds tested hit in one or more screens of this group.

Below each compound: Rtt109 Vps75 | UUG fidelity | Cneo AK release | C2C12 statin | CDK5 p35 inh
Cc1noc(C)c1NC(=O)N(C)C[C@@H]1OCCCC[C@@H](C)Oc2ccc(NC(=O)NC3CCCCC3)cc2C(=O)N([C@H](C)CO)C[C@@H]1C
    nt | 0 | -2 | nt | nt
C[C@H](CO)N1C[C@H](C)[C@@H](CN(C)C(=O)Nc2ccc(F)cc2)Oc2ccc(NC(=O)c3ccncc3)cc2C1=O
    nt | -1 | -1 | 16 | nt
CC(C)(C)c1cc(C(F)(F)F)c(C#N)c(=O)[nH]1
    -7 | -10 | 0 | 120* | 0
c1ccc(C2=Nc3ccccc3OC2)cc1
    -27 | -7 | 0 | 89* | -3
Clc1ccc(C2=Nc3cc(Cl)ccc3OC2)cc1
    -8 | nt | nt | nt | 2
CC(C)NC(=O)N(C)C[C@H]1OCCCC[C@@H](C)Oc2ccc(NS(=O)(=O)c3cn(C)cn3)cc2C(=O)N([C@H](C)CO)C[C@H]1C
    nt | 4 | -8 | nt | nt
CC(C)NC(=O)N[C@@H]1CC[C@H](CCNC(=O)C2CCCC2)O[C@@H]1CO
    nt | nt | nt | -1 | nt
COc1cc(OC)cc(-c2nc3nc(C)c(CCC(=O)O)c(C)n3n2)c1
    1 | -22 | 0 | 117* | 2
Clc1ccc2ccc3cccnc3c2n1
    -9 | -18 | 1 | 0 | 2
O=S1(=O)Nc2c(ccc3cccnc23)-c2ccccc21
    3 | -25 | 19 | 109* | -1
O=c1cc(-c2ccccc2)c2ccccc2[nH]1
    7 | -14 | -1 | -10 | 1
Cc1cccc2c(-c3ccccc3)cc(=O)[nH]c12
    -10 | -12 | 2 | 84* | -1
C[C@H](CO)N1C[C@H](C)[C@H](CN(C)C(=O)Cc2cccnc2)Oc2ncc(C#CCc3ccccc3)cc2C1=O
    nt | 10 | 1 | 10 | nt
COCC(=O)N1C[C@H](C)[C@H](OC)CN(C)C(=O)c2ccc(NC(=O)Nc3cccc(F)c3)cc2OC[C@@H]1C
    nt | nt | nt | 1 | nt
COc1ccc(-c2cn(CC[C@H]3CC[C@H](N)[C@@H](CO)O3)nn2)cc1
    nt | -13 | -9 | 11 | nt
Oc1ccccc1-c1cc(-c2ccccc2)no1
    1 | -20 | -5 | 94* | 1
O=C1C(C=NCCCN2CCOCC2)=C(O)c2ccccc21
    6 | 13 | 0 | 124* | -1
COc1ccc(C=NCCCN2CCOCC2)cc1
    -2 | -6 | 1 | 88* | -1
COc1ccc(C2CC(=O)C(C=NCCCN3CCOCC3)=C(O)C2)cc1 (configuration not stated)
    -1 | -15 | 1 | 8 | 0
O=C1C(C=NCCN2CCOCC2)=C(O)c2ccccc21
    5 | -1 | -6 | 8 | 2
C[C@H](CO)N1C[C@H](C)[C@@H](CN(C)C(=O)c2ccc3c(c2)OCO3)Oc2cc(-c3cncnc3)ccc2S1(=O)=O
    nt | -7 | 0 | -10 | nt
COCC(=O)NC[C@H]1N[C@H](CO)[C@@H]1c1ccc(C2=CCCC2)cc1
    nt | 0 | 108* | -20 | nt
COCC(=O)NC[C@H]1N[C@H](CO)[C@H]1c1ccc(C2=CCCC2)cc1
    nt | 7 | 97* | 13 | nt
CCC(=O)NC[C@H]1N[C@H](CO)[C@@H]1c1ccc(C2=CCCC2)cc1
    nt | -10 | -1 | -18 | nt
C[C@H]1CN([C@@H](C)CO)C(=O)c2cccc(NC(=O)Nc3ccc(C(F)(F)F)cc3)c2O[C@@H]1CN(C)Cc1ccncc1
    nt | -1 | -1 | 10 | nt
CC(C)NC(=O)N[C@@H]1CC[C@H](CC(=O)NCc2ccc(Oc3ccccc3)cc2)O[C@H]1CO
    nt | 24 | -5 | 18 | nt
Cc1ccc(S(=O)(=O)N(C)Cc2ccc(-c3nnco3)cc2)cc1
    -16 | -3 | 0 | 108* | 2
C[C@@H]1CN([C@H](C)CO)C(=O)c2cccc(NS(C)(=O)=O)c2O[C@H]1CN(C)C(=O)Nc1cccc2ccccc12
    nt | nt | -4 | 25 | nt
CN(C)CCCNC(=O)C[C@H]1CC[C@H](NS(=O)(=O)c2ccc(F)cc2)[C@H](CO)O1
    nt | -2 | -8 | -7 | nt
N#CC(=C1Nc2ccccc2N1)S(=O)(=O)c1ccccc1
    -4 | -15 | 0 | 108* | -2

Next section; it opens with the five that closed the last part.
Below each compound: Rtt109 Vps75 | UUG fidelity | Cneo AK release | C2C12 statin | CDK5 p35 inh
CC(C)NC(=O)N[C@@H]1CC[C@H](CC(=O)NCc2ccc(Oc3ccccc3)cc2)O[C@H]1CO
    nt | 24 | -5 | 18 | nt
Cc1ccc(S(=O)(=O)N(C)Cc2ccc(-c3nnco3)cc2)cc1
    -16 | -3 | 0 | 108* | 2
C[C@@H]1CN([C@H](C)CO)C(=O)c2cccc(NS(C)(=O)=O)c2O[C@H]1CN(C)C(=O)Nc1cccc2ccccc12
    nt | nt | -4 | 25 | nt
CN(C)CCCNC(=O)C[C@H]1CC[C@H](NS(=O)(=O)c2ccc(F)cc2)[C@H](CO)O1
    nt | -2 | -8 | -7 | nt
N#CC(=C1Nc2ccccc2N1)S(=O)(=O)c1ccccc1
    -4 | -15 | 0 | 108* | -2
CCN1C(=O)CS/C1=C(\C#N)S(=O)(=O)c1ccccc1
    2 | -17 | 1 | -4 | 0
O=C(CC1NCCNC1=O)Nc1ccccc1 (configuration not stated)
    23 | nt | nt | nt | 2
O=C(CC1NCCNC1=O)OCc1ccccc1 (configuration not stated)
    -3 | -9 | -1 | 96* | 0
Cc1nn(-c2cc(N3CCCCC3)ccc2[N+](=O)[O-])c(=O)c2ccccc12
    -3 | nt | nt | nt | 2
CN1CCN(c2ccc([N+](=O)[O-])c(-n3nc(-c4ccccc4)c4ccccc4c3=O)c2)CC1
    11 | -13 | 2 | 80* | 1
CC(C)(C)C(=O)Nc1ccc(C(=O)NCc2cccnc2)cc1
    -11 | -21 | -1 | 114* | 2
CC(C)(C)c1ccc(C(=O)Nc2ccc(C(=O)NCc3cccnc3)cc2)cc1
    13 | -5 | 0 | -55 | -1
Cc1noc(C)c1S(=O)(=O)N(C)C[C@@H]1Oc2ccc(NC(=O)Nc3ccccc3)cc2CC(=O)N([C@H](C)CO)C[C@H]1C
    nt | nt | nt | 2 | nt
O=c1c2c([nH]c3ccccc13)C(=C1CCCC1)CC2
    -18 | nt | nt | nt | 3
O=c1c2c([nH]c3ccccc13)CCCC2
    6 | -13 | -1 | 98* | 2
CCOC(=O)c1cccc(NC(=O)C2CCCO2)c1 (configuration not stated)
    3 | -16 | 0 | 102* | -2
CCC(=O)N[C@@H]1CC[C@@H](CC(=O)NCc2ccc(OC)cc2)O[C@@H]1CO
    nt | -3 | 1 | 1 | nt
C[C@@H]1CN([C@H](C)CO)C(=O)c2cc(NC(=O)C3CCCCC3)ccc2O[C@@H](C)CCCCO[C@H]1CN(C)C(=O)c1ccccc1
    nt | 10 | 0 | 5 | nt
CN(C)c1ccc(C2C3C(=O)N(c4ccc(C(=O)O)cc4)C(=O)C3ON2c2ccccc2)cc1 (configuration not stated)
    -4 | -14 | -9 | 101* | 0
O=C(O)c1ccc(N2C(=O)C3ON(c4ccccc4)C(c4ccccc4F)C3C2=O)cc1 (configuration not stated)
    2 | 11 | 2 | 2 | -1
O=C(C[C@H]1C[C@H]2c3cc(NC(=O)Nc4ccc(C(F)(F)F)cc4)ccc3O[C@H]2[C@H](CO)O1)NCc1ccc(Cl)cc1
    nt | nt | 48 | 2 | nt
C[C@H](CO)N1C[C@H](C)[C@H](CN(C)C(=O)Nc2ccc3c(c2)OCO3)Oc2ccc(NC(=O)CCN3CCOCC3)cc2C1=O
    nt | -10 | 9 | -20 | nt
CCCCCCN1Cc2ccccc2C1
    3 | -3 | 1 | 106* | -1
Cc1ccc(CN2CCC(C(=O)NCCC(C)C)CC2)o1
    -1 | -34 | -1 | 109* | 2
O=C(Nc1ccccc1C(=O)N1CCOCC1)c1ccc(F)cc1
    2 | -12 | -1 | 86* | 0

Screens (PubChem BioAssay)
